These are literature values, as cited in patent US6569839B1, “Fast-acting pharmaceutical compositions and methods of use” (priority 1998, dated 2003).

Structures are written as SMILES.

The conditions of this data set: in vivo; cited from earlier work.

Regarding `C[C@]12CCC(=O)C=C1CC[C@@H]1[C@@H]2[C@@H](O)C[C@@]2(C)[C@H]1CC[C@]2(O)C(=O)COC(=O)CCC(=O)O` [Solu-Cortef, Hydrocortisone sodium succinate], the “duration of activity suppression” value is reported as “about 1.5 days”.
